Source: patent US6448262B1, “Pesticidal and parasiticidal use of 2-(substituted thio) thiazolo-[4,5-b]pyridine compounds” (American Cyanamid Company, priority 1998, dated 2002)

Test system: Root-knot nematode, Meloidogyne incognita
Type: in vivo
Conditions: potted tomato, scored 4 weeks after inoculation
From the text: Soil Nematicide Assay Targeting Root-knot Nematode, Meloidogyne incognita on Potted Tomato
The test compound is solubilized in acetone and diluted with water to the required test concentration. Silty loam soil in a 3 inch pot with a 3-week-old tomato transplant is drenched with the test solution. Four thousand root-knot nematode Meloidogyne incognita J2 larvae are dispensed in a aqueous suspension onto the soil. The pots are kept in the greenhouse and 4 weeks following inoculation of the pots, plant roots are washed free of soil and scored for the degree of root galling using the root-knot galling index identified below.

CCCSP(=O)(OCC)SCCC [Ethoprophos, reference compound]
Galling Index (rate 10 ppm soil drench): 0 (0)
Galling Index (rate 25 ppm soil drench): 0^1 (0)
Galling Index (rate 50 ppm soil drench): 0^1 (0)

Like-named read-outs stand apart in the source and are kept apart here.
